The target in this assay is Alpha-1B adrenergic receptor (Mesocricetus auratus) (UniProt P18841). Nature of the assay: Binding affinity to hamster alpha-1B adrenergic receptor.

With `COc1cccc2c1CC[C@H]1CN(CCn3c(=O)[nH]c4c(C)csc4c3=O)C[C@@H]21` [3-[2-(6-Methoxy-1,3,3a,4,5,9b-hexahydro-benzo[e]isoindol-2-yl)-ethyl]-7-methyl-1H-thieno[3,2-d]pyrimidine-2,4-dione], the Ki – broadly, the equilibrium dissociation constant of an inhibitor or competing ligand from its target – is 1.28 nM.
